Active and inactive are the calls of the source. No cut-off for these calls is given here.
Key:
[1] = biological target: T1, Histone acetyltransferase p300 (Homo sapiens, UniProt Q09472); test: Non-competitive inhibition of human p300 HAT domain (1195 to 1673 residues) using acetyl-coA as substrate preincubated for 10 mins followed by varying concentrations of substrate addition and measured after 30 mins by Cheng-Prusoff plot analysis; details: time 40.0 min
[2] = biological target: T1, Histone acetyltransferase p300; test: Competitive inhibition of human p300 HAT domain (1195 to 1673 residues) using histone H3 peptide as substrate preincubated for 10 mins followed by varying concentrations of substrate addition and measured after 30 mins by Cheng-Prusoff plot analysis; details: time 40.0 min

Amino acid sequences for entries named in this document (tags omitted).
UniProt Q09472, whole entry: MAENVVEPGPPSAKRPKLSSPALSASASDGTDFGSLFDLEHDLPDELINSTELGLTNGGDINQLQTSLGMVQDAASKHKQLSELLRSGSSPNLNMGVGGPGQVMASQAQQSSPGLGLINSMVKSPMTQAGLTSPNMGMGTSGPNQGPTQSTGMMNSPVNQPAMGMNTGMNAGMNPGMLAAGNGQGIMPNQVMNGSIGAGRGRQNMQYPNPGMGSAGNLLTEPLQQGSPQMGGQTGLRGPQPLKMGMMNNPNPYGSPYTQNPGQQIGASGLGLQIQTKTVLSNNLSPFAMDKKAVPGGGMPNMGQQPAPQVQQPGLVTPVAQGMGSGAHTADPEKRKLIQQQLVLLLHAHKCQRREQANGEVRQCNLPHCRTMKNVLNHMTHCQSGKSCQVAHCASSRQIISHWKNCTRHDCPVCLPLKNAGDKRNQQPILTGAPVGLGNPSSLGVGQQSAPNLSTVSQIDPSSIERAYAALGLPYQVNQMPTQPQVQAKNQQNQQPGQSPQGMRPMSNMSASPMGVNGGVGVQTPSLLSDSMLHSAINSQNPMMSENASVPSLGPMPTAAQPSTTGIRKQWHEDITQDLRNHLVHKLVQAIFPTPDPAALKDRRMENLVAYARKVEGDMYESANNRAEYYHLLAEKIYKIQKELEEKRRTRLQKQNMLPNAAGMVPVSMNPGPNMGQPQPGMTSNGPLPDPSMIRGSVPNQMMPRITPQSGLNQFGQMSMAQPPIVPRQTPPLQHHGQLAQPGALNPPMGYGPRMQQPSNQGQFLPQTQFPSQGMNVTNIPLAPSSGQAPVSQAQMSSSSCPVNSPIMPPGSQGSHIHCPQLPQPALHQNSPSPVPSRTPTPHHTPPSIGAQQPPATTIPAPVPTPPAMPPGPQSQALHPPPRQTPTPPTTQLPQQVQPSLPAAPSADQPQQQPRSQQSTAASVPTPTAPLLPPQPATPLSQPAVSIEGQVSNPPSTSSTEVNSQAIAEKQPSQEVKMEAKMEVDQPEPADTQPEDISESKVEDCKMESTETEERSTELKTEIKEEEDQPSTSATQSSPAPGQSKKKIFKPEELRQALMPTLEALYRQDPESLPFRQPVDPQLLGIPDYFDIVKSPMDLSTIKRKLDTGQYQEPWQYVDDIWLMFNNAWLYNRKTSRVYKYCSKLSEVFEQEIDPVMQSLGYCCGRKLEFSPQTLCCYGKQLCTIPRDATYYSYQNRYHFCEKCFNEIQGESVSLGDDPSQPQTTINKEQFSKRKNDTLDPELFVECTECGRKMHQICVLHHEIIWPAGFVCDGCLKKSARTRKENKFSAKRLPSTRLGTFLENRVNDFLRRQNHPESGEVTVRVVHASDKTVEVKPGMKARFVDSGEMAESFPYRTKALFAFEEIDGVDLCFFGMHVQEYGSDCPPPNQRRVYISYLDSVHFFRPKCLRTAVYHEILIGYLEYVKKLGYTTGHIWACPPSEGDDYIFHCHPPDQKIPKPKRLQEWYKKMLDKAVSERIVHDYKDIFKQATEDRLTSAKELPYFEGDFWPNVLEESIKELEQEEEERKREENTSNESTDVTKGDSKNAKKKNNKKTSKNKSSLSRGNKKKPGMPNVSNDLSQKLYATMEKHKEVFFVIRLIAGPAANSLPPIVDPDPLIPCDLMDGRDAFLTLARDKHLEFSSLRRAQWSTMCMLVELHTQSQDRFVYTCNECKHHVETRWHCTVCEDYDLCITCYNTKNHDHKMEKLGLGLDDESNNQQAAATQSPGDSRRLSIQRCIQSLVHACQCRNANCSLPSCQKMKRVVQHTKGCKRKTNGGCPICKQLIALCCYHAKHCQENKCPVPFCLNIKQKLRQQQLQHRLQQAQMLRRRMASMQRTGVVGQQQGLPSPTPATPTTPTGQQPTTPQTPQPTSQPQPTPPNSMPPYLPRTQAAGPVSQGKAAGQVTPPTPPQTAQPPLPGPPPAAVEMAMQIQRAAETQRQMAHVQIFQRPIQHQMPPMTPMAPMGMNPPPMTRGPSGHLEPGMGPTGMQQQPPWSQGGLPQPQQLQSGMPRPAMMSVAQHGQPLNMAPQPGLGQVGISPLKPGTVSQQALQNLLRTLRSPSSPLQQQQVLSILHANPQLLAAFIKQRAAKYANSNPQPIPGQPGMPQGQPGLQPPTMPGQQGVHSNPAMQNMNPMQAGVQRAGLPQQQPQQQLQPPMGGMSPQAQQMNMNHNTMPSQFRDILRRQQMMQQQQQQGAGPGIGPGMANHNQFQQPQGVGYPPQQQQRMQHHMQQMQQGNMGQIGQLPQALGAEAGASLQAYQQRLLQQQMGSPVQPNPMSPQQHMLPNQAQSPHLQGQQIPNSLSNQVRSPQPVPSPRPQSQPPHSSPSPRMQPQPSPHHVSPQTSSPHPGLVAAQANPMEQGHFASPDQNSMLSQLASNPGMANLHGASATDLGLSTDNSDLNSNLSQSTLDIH

In the case of `c1cc(-c2ccc(-c3ncc(OCC4CCNCC4)nc3-c3ccc(-c4ccoc4)cc3)cc2)co1`, the inhibition [1] is reported as “Active” and the inhibition [2] is reported as “Active”.

From ChEMBL document CHEMBL5120858, “Structure-activity relationship and antitumor activity of 1,4-pyrazine-containing inhibitors of histone acetyltransferases P300/CBP” (Eur J Med Chem, 2022)
